Measured values taken from article PMC7017074, “Krebs Cycle Intermediate-Modified Carbonate Apatite Nanoparticles Drastically Reduce Mouse Tumor Burden and Toxicity by Restricting Broad Tissue Distribution of Anticancer Drugs” (Cancers, 2020).

Assay: Animal biodistribution study (organ and tumor distribution of DOX)
Type: in vivo, Balb/c mice
Conditions: 4T1 tumor mice, IV DOX 5 mg/kg, 2 h

For `COc1cccc2c1C(=O)c1c(O)c3c(c(O)c1C2=O)C[C@@](O)(C(=O)CO)C[C@@H]3O[C@H]1C[C@H](N)[C@H](O)[C@H](C)O1` [Free DOX, doxorubicin], the DOX in brain was 0.29 ± 0.02 ng/mg.
